The target of this test is HSA (Homo sapiens, UniProt P02768). Briefly: Association constants of photosensitizers to HSA (spectroscopic titration). The format is binding. An excerpt: Association constants of photosensitizers, conjugated or non-conjugated to an RGD-containing peptide, were deduced from spectroscopic measurements of the ratio between the photosensitizer and HSA for different concentrations of HSA using both factor analysis, as previously described (Brandis et al., 2005) and by monitoring changes in the near infrared (NIR) absorption of the photosensitizers during titration with HSA. Briefly, all photosensitizers (PhSs) present broad NIR absorption with reduced intensity in SA-free aqueous solutions. Upon addition of SA, they form 1:1 complexes with the added protein (PhS/SA) with strong and narrow NIR absorption bands. The narrow-band absorption is proportional to the (PhS/SA) concentration enabling calculation of the association constant Ka through the following equation:
[formula] where [SA]0 is the analytical concentration of the added SA and [PhS/SA] is the concentration of the photosensitizer complexed with SA calculated from the spectral changes. In Vitro Studies
Therefore, the association constants of compounds 8 and 25 and conjugates 13 and 24 were determined. […] In fact, those for the RGDconjugates were four to six fold lower than the association constants of their RGD-free analogues, ruling out stronger SA association as the sole basis for RGD-conjugates retention in the tumor.

Protein sequences, listed by entry. Tags and fused reporters are not part of them. Residues count along the entry.
UniProt P02768, 25-609: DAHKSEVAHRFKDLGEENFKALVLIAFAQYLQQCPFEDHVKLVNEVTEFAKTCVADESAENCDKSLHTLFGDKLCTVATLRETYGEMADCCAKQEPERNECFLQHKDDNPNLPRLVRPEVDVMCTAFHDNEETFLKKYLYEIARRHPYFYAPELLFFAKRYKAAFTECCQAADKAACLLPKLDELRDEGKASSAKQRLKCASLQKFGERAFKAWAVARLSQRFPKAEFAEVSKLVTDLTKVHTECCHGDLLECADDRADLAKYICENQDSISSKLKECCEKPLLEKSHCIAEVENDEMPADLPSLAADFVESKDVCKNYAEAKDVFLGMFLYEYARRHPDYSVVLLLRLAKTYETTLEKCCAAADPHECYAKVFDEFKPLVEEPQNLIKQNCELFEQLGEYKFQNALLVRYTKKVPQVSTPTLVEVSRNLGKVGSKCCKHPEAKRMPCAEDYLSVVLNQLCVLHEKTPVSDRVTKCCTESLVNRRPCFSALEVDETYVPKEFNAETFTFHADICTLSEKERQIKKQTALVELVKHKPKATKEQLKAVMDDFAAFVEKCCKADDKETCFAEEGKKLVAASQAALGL

“Palladium 3^1-oxo-15-methoxycarbonylmethyl-Rhodobacteriochlorin 13^1-(2-sulfoethyl)amide potassium salt [Compound 8]”: the “association constants Ka(HSA)” value turned out to be 0.54±0.07.

Take “3^1-oxo-15-methoxycarbonylmethyl-Rhodobacteriochlorin 13^1-(2-sulfoethyl)amide potassium salt [Compound 25, reference compound]”: the “association constants Ka(HSA)” value was 0.44±0.09.

For the origin of these results see patent US10689415B2, “Conjugates of RGD peptides and (bacterio)chlorophyll photosensitizers” (YEDA RESEARCH AND DEVELOPMENT COMPANY LTD., priority 2006, dated 2020).
